Like-named read-outs stand apart in the source and are kept apart here.
Settings: 20 mg/mL, 24 h

- percent remaining (HPLC) (5% dextrose + K-phosphate buffer, 2.5% w/v (pH 6.5)): 89.4%
- percent remaining (HPLC) (10% dextrose + 10% PG): 95.6%
SMILES: Cc1cc2c(cc1CC(=O)c1sccc1S(=O)(=O)Nc1onc(C)c1Cl)OCO2.[Na] [sodium]

— patent US6683103B2, “Sulfonamides for treatment of endothelin-mediated disorders” (Texas Biotechnology Corporation, priority 1997, dated 2004)
